The test addresses Glucagon-like peptide 1 receptor (Homo sapiens, UniProt P43220). In words: Agonist activity at human GLP1R expressed in frozen cells assessed as measuring the cAMP level incubated for 1 hr by HitHunter chemiluminescence based assay. The test is classed as functional, cell-based. For orientation: cAMP levels reflect the balance of adenylyl cyclase and phosphodiesterase activity.

Amino acid sequences for entries named in this document (tags omitted).
UniProt P43220, whole entry: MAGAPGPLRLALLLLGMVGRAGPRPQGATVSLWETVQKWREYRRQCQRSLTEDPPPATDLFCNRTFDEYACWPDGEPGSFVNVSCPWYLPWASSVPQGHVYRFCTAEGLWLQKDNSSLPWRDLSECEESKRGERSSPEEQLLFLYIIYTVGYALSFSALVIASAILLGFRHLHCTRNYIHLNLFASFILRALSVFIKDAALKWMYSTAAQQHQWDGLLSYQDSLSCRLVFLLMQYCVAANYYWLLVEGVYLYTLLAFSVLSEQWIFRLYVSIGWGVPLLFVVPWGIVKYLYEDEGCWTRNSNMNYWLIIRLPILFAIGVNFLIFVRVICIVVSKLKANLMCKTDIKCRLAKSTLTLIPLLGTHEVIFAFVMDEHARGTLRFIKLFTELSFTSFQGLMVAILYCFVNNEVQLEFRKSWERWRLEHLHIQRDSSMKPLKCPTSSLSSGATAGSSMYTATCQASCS

In general, EC50 refers to the concentration that produces a half-maximal response.

`CCCCCCCCCCCCCCCC(=O)N[C@@H](CCC(=O)N[C@@H](CCC(=O)NCCCC[C@H](NC(=O)[C@H](CC(=O)O)NC(=O)[C@H](CO)NC(=O)[C@@H](NC(=O)[C@H](Cc1ccccc1)NC(=O)[C@@H](NC(=O)CNC(=O)[C@H](CCC(N)=O)NC(=O)[C@@H](CO)NC(=O)[C@@H](N)Cc1c[nH]cn1)[C@@H](C)O)[C@@H](C)O)C(=O)N[C@@H](CO)C(=O)N[C@@H](CCCCN)C(=O)N[C@@H](Cc1ccc(O)cc1)C(=O)N[C@@H](CC(C)C)C(=O)N[C@@H](CC(=O)O)C(=O)N[C@@H](CCC(=O)O)C(=O)N[C@@H](CCCNC(=N)N)C(=O)N[C@@H](C)C(=O)N[C@@H](C)C(=O)N[C@@H](CCC(N)=O)C(=O)N[C@@H](CC(=O)O)C(=O)N[C@@H](Cc1ccccc1)C(=O)N[C@H](C(=O)N[C@@H](CCCCN=[N+]=[N-])C(=O)N[C@@H](Cc1c[nH]c2ccccc12)C(=O)N[C@@H](CC(C)C)C(=O)N[C@@H](CC(C)C)C(=O)N[C@@H](CC(=O)O)C(=O)N[C@H](C(N)=O)[C@@H](C)O)C(C)C)C(=O)O)C(=O)O`: the EC50 was determined as 0.048 nM.

(Values after ChEMBL document CHEMBL5143749, “Discovery of Insulin/GLP-1/Glucagon Triagonists for the Treatment of Diabetes and Obesity” (ACS Med Chem Lett, 2022).)
